# In patent US12583886 (KING ABDULLAH UNIVERSITY OF SCIENCE AND TECHNOLOGY, dated 2026):
# Columns and labels:
# [1] = biological target: human PCNA N107C, N-terminally Histidine-tagged, coupled to SulfoLink agarose resin (PCNA-Agarose column) (human) (UniProt P12004); assay: salt-gradient elution from PCNA-Agarose column (N107C PCNA on SulfoLink resin), EMG fit of UV 280 nm peak
# [2] = biological target: human PCNA N107C, N-terminally Histidine-tagged, coupled to SulfoLink agarose resin (PCNA-Agarose column) (human) (UniProt P12004); assay: salt-gradient elution from PCNA-Agarose column, empirical cumulative integration
substance,measurement,setting,value
"PIP^p21-Tus: E. coli replication termination protein Tus with N-terminal p21 PIP motif, Histidine tag and SUMO tag (from UniProt P16525 1-309)","Elution Peak (mM NaCl, mode of EMG fit)",[1],227 mM
same,median NaCl concentration of elution (50% cumulative elution),[2],< 300 mM
